Test results from patent publication US20090280160A1, “PHENYLEPHRINE PHARMACEUTICAL FORMULATIONS AND COMPOSITIONS FOR TRANSMUCOSAL ABSORPTION” (Schering-Plough Healthcare Products, Inc., priority 2007, published 2009).

Biological target: T1, α1a adrenoreceptor (Homo sapiens, UniProt P35348)
T1 construct: expressed in transfected cells
T1 sequence (P35348 1-466): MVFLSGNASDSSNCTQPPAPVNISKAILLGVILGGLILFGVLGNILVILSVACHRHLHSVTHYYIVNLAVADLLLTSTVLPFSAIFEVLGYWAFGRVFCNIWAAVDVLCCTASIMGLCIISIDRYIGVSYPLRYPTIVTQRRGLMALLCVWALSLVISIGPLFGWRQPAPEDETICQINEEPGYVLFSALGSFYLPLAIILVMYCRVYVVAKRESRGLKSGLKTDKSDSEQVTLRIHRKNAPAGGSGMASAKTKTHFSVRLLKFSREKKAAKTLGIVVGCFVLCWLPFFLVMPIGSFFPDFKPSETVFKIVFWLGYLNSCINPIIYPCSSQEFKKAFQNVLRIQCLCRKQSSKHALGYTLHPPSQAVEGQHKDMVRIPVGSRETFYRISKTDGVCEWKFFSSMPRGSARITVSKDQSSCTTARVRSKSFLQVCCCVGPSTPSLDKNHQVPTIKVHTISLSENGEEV
Experiment: Competition binding, [3H]-prazosin, α1a CHO cell membranes
Conditions: read-out: Ki, a1a Binding (class symbol)

(R)-PE sulfate was tested, and the Ki was over 100 µM.
